B1: GST‐Rfa1 (natural protein, yeast, UniProt P22336 1-621, looked up)
chain: MSSVQLSRGDFHSIFTNKQRYDNPTGGVYQVYNTRKSDGANSNRKNLIMISDGIYHMKALLRNQAASKFQSMELQRGDIIRVIIAEPAIVRERKKYVLLVDDFELVQSRADMVNQTSTFLDNYFSEHPNETLKDEDITDSGNVANQTNASNAGVPDMLHSNSNLNANERKFANENPNSQKTRPIFAIEQLSPYQNVWTIKARVSYKGEIKTWHNQRGDGKLFNVNFLDTSGEIRATAFNDFATKFNEILQEGKVYYVSKAKLQPAKPQFTNLTHPYELNLDRDTVIEECFDESNVPKTHFNFIKLDAIQNQEVNSNVDVLGIIQTINPHFELTSRAGKKFDRRDITIVDDSGFSISVGLWNQQALDFNLPEGSVAAIKGVRVTDFGGKSLSMGFSSTLIPNPEIPEAYALKGWYDSKGRNANFITLKQEPGMGGQSAASLTKFIAQRITIARAQAENLGRSEKGDFFSVKAAISFLKVDNFAYPACSNENCNKKVLEQPDGTWRCEKCDTNNARPNWRYILTISIIDETNQLWLTLFDDQAKQLLGVDANTLMSLKEEDPNEFTKITQSIQMNEYDFRIRAREDTYNDQSRIRYTVANLHSLNYRAEADYLADELSKALLA
notes: Rfa1, subunit of Replication Protein A (RPA), yeast; also called full‐length GST Rfa1; source: E. coli (BL21), pGEX4T3; immobilized onto GSH‐sepharose beads
B2: 6xHis‐Rfa1 (natural protein, yeast, UniProt P22336 1-621, looked up)
chain: B1 chain
notes: Rfa1, subunit of Replication Protein A (RPA), yeast; also called RPA (in the text on the truncations); source: E. coli (BL21), pET30a(+)

What was measured:
[1] = target: T1, 6xHis‐Bdf1 (yeast, UniProt P35817 1-686); assay: pull-down; GST or GST fusion proteins immobilized on GSH‐sepharose beads, incubated with His‐tagged proteins at 4 °C for 4 h; wash 20 mM Tris–HCl pH 7.4, 200 mM NaCl, 0.5 mM EDTA; Western blot with anti‐His antibody; conditions: both partners purified
T1 construct: Bromodomain Factor 1 (Bdf1), yeast; source: E. coli (BL21), pET30a(+)
T1 sequence (looked up): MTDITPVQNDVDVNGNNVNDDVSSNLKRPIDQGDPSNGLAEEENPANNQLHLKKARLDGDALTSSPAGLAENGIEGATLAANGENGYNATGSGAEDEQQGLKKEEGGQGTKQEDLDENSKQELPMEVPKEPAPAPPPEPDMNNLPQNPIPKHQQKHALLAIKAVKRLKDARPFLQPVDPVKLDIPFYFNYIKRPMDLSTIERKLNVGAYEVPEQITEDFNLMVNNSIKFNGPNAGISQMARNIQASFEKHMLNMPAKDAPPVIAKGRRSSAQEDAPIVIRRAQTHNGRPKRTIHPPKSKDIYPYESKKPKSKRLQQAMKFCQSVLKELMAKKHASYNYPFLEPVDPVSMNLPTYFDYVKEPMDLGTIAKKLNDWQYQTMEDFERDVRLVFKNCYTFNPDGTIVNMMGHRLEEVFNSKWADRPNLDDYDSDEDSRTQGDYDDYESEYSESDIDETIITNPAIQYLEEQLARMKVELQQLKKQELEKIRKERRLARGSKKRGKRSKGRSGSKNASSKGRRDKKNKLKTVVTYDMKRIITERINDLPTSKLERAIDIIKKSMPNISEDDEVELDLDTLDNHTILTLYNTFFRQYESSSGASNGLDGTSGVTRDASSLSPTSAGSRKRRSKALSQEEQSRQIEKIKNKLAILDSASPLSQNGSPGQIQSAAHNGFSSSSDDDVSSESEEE

[2] = target: T2, GST‐Bdf1 (yeast, UniProt P35817 1-686); assay: as above; conditions: both partners purified
T2 construct: Bromodomain Factor 1 (Bdf1), yeast, full length; also called Bromodomain Factor 1; WT Bdf1; source: E. coli (BL21), pGEX4T3; immobilized onto GSH‐sepharose beads
T2 sequence (looked up): T1 sequence (looked up)

Binder | binding result [1] | binding result [2]
B1 | binds | 
B2 |  | binds

From paper PMC8336524, “Yeast Bromodomain Factor 1 and Its Human Homolog TAF1 Play Conserved Roles in Promoting Homologous Recombination” (Advanced Science, 2021)
